Measured values taken from patent publication US8921383B2, “Thiazolopyrimidine compounds” (Hoffmann-La Roche Inc., priority 2011, dated 2014).

Molecular target: T1, purified recombinant human SYK360-635 (Homo sapiens, UniProt P43405)
T1 construct: truncated construct of Spleen Tyrosine Kinase aa 360-635; GST; made in house
Experiment: SYK kinase assay: 33P γATP incorporation into biotinylated peptide substrate, IC50 determination
Format: biochemical
Conditions: SYK 0.5 nM, ATP 20 μM, DYE peptide 5 μM, 30° C. 15 min; read-out: IC50 h-syk-gst-sf9-c (inactive-dephosphorylated)
Method: Determination of IC50 of Spleen Tyrosine Kinase (SYK) Inhibition:
SYK kinase assay is a standard kinase assay adapted to a 96 well plate format. This assay is performed in 96-well format for IC50 determination with […] which represented 10 half log dilutions and a 40 μL reaction volume. The assay measures the incorporation of radiolabeled ^33P γATP into an N-terminally biotinylated peptide substrate, derived from naturally occurring phosphoacceptor consensus sequence (Biotin-11aa DY*E). Phosphorylated products were detected upon termination of reactions with EDTA and the addition of Streptavidin coated beads.
Assay plates: 96-well MultiScreen 0.65 um filter plates (Millipore Cat. No.: MADVNOB10)
BSA: Bovine Serum Albumin Fraction V, fatty acid free (Roche Diagnostics GmbH, Cat. No. 9100221) diluted to a final concentration of 0.1%
Assay Dilution Buffer (ADB): 50 mM HEPES, 0.1 mM EGTA, 0.1 mM Na Vanadate, 0.1 mM β-glycerophosphate, 10 mM MgCl2, 1 mM DTT, 0.1% BSA, pH 7.5
Bead wash buffer: 10 g/L PBS (Phosphate buffered saline) with 2M NaCl+1% phosphoric acid.
DMSO and the mixture was incubated for 10 min at RT.
The kinase reaction was initiated by the addition of 10 μL 4× substrate cocktail containing the DYE peptide substrate [0 or 5 μM], ATP [20 μM] and ^33PγATP [2 μCi/r×n]. After incubation at 30° C. for 15 min, the reaction was terminated by the transfer of 25 μL of the reaction sample to a 96 well 0.65 μm Millipore MADVNOB membrane/plate containing 200 μL 5 mM EDTA and 20% Streptavidine coated beads in PBS.
The unbound radionucleotides were washed under vacuum with 3×250 μL 2M NaCl; 2×250 μL 2M NaCl+1% phosphoric acid; 1×250 μL H2O. After the last wash membrane/plates were transferred to an adaptor plate, heat dried for 15 min at 60° C., and 50 μL scintillation cocktail was added to each well and 4 h later the amount of radioactivity was counted in a top counter.

| Compound | IC50 [µM] |
| --- | --- |
| COc1ccc(Nc2nc(N3CCCC(C(=O)NCCc4ccncc4)C3)nc3scnc23)cc1OC (stereo not drawn) [Compound I-25, 1-(7-(3,4-Dimethoxyphenylamino)thiazolo[5,4-d]pyrimidin-5-yl)-N-(2-(pyridin-4-yl)ethyl)piperidine-3-carboxamide] | 19.9 |
| COc1ccc(Nc2nc(N3CCCC(C(=O)Nc4ccc(C(=O)O)nc4)C3)nc3scnc23)cc1OC (stereo not drawn) [Compound I-42, 5-(1-(7-(3,4-Dimethoxyphenylamino)thiazolo[5,4-d]pyrimidin-5-yl)piperidine-3-carboxamido)picolinic acid] | 0.065 |
| COc1ccc(Nc2nc(-c3cccc(CO)c3)nc3scnc23)cc1OC [Compound I-67, {3-[7-(3,4-Dimethoxy-phenylamino)-thiazolo[5,4-d]pyrimidin-5-yl]-phenyl}-methanol] | 0.079 |
